For 15 compounds, Emax and inhibition results are on record in ChEMBL document CHEMBL4390675, “Dopamine D4 Receptor-Selective Compounds Reveal Structure-Activity Relationships that Engender Agonist Efficacy” (J Med Chem, 2019).

The chains behind the UniProt entries cited, without tags or fusion partners.
UniProt P35462, whole entry: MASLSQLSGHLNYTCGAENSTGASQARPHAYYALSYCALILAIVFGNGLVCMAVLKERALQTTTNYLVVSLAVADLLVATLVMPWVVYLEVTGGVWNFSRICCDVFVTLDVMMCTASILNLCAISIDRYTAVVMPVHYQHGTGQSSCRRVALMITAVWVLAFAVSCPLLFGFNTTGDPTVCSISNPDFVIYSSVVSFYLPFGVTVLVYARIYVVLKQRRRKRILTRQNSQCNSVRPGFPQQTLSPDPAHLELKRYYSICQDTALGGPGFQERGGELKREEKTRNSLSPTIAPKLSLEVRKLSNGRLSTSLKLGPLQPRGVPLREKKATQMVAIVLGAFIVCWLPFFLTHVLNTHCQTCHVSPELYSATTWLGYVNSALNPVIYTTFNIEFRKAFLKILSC
UniProt P21917, whole entry: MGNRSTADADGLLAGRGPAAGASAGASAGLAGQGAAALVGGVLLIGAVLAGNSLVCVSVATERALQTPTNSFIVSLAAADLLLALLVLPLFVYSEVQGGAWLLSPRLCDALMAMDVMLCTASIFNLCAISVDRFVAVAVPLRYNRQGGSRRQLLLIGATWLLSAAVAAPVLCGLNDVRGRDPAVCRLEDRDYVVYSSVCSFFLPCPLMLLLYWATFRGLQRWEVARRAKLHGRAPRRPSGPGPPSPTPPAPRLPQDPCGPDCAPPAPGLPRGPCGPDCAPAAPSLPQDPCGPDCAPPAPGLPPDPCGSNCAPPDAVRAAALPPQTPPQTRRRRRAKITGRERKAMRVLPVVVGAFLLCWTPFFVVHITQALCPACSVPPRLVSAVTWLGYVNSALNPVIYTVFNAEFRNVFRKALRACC

For orientation: Emax means the greatest response seen or fitted, relative to the assay's reference. As usually defined, the inhibition is how much of the control response was suppressed.

The source made the active and inactive calls. The calls are words filed in the database; no cut-off is given here.

The target of assay [1] is T1, D(3) dopamine receptor (Homo sapiens, UniProt P35462). In words: Agonist activity at human D3 receptor expressed in CHOK1 cells assessed as induction of beta-arrestin recruitment measured after 90 mins by luminescence assay relative to control. It is filed as cell-based. The procedure, abridged: (§1)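 PathHunter enzyme-complementation assay in CHO-K1 cells stably expressing human D2R long isoform, D3R or D4R, seeded overnight in Ham's F12/10% FBS. Compounds were diluted in PBS with 0.2 μM sodium metabisulfite and applied at multiple concentrations for 90 min at 37 °C. Detection reagent was added for 45–60 min at room temperature, then luminescence was read. Values are % of maximal dopamine response, from nonlinear regression of triplicate runs, mean ± SEM, n = 3–4.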

Assay [2] deals with T2, D(4) dopamine receptor (Homo sapiens, UniProt P21917). In words: Agonist activity at human D4 receptor expressed in CHOK1 cells assessed as inhibition of forskolin-induced cAMP accumulation measured after 30 mins by Eu-cAMP tracer based TR-FRET assay relative to dopamine. It is filed as functional, cell-based. The procedure, abridged:
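LANCE Ultra TR-FRET cAMP assay in CHO-K1 cells stably expressing human D2R long isoform or D4R. Cells were plated in HBSS/5 mM HEPES/0.2 μM metabisulfite, then immediately given compound plus forskolin (10 μM final) for 30 min at room temperature. Eu-cAMP tracer and ULight-anti-cAMP were added for 2 h in the dark. Values are % of maximal dopamine signal, nonlinear regression of triplicate runs, n = 3–4.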
In general terms: Cyclic AMP is a second messenger, typically raised through Gs and lowered through Gi signalling.

Assay [3] deals with T2, D(4) dopamine receptor. As to the kind of experiment: Antagonist activity at human D4 receptor expressed in CHOK1 cells assessed as inhibition of dopamine-induced beta-arrestin recruitment measured after 90 mins by luminescence assay relative to control. It is filed as cell-based. On the set-up: concentration or dose not given beside the values. (In general: Activated receptors often draw arrestin, which recruitment assays turn into a signal.)

Assay [4] concerns the target T2, D(4) dopamine receptor. As to the kind of experiment: Antagonist activity at human D4 receptor expressed in CHOK1 cells assessed as suppression of dopamine-induced inhibition of forskolin-stimulated cAMP accumulation measured after 30 mins by Eu-cAMP tracer based TR-FRET assay relative to dopamine. In kind it is functional, cell-based. On the set-up: concentration or dose not given beside the values.

In assay [5] the target is T1, D(3) dopamine receptor. In words: Antagonist activity at human D3 receptor expressed in CHOK1 cells assessed as inhibition of dopamine-induced beta-arrestin recruitment measured after 90 mins by luminescence assay relative to control. It is filed as cell-based. The procedure, abridged:
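Antagonist-mode PathHunter β-arrestin assay in CHO-K1 cells stably expressing human D2R long isoform or D3R, seeded overnight. Compound dilutions in PBS with 0.2 μM metabisulfite were co-incubated with an EC80 dopamine concentration for 90 min at 37 °C. Detection reagent was added for 45–60 min at room temperature, then luminescence was read. Values are % of dopamine EC80 response, from nonlinear regression of triplicate runs, n = 3–4.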

In assay [6] the target is T2, D(4) dopamine receptor. As to the kind of experiment: Agonist activity at human D4 receptor expressed in CHOK1 cells assessed as induction of beta-arrestin recruitment measured after 90 mins by luminescence assay relative to control. It is filed as cell-based. A digest of the protocol:
as §1

As for `Cc1cccc(NC(=O)CN2CCC(c3ccccc3)CC2)c1`, the Emax result at D(3) dopamine receptor [1] was “inactive”.

Take `Cc1cccc(NC(=O)CN2CCC(c3ccc(Cl)cc3)CC2)c1`: the Emax result on D(4) dopamine receptor [2], on D(3) dopamine receptor [1] and on D(4) dopamine receptor [6] was “inactive” each time. In addition, the inhibition on D(4) dopamine receptor [3] and at D(4) dopamine receptor [4] was 100% in each case. In addition, the inhibition entry on D(3) dopamine receptor [5] was “inactive”.

Turning to `Cc1cccc(NC(=O)CCN2CCC(c3ccccn3)CC2)c1`, the maximal response (Emax) on D(4) dopamine receptor [2] was 28.1%. The figures for the inhibition at D(4) dopamine receptor [3] and on D(4) dopamine receptor [4] were 98.7% and 77.6%, respectively. Further, the Emax result at D(4) dopamine receptor [6] was “inactive”.

Take `Cc1ccc(C2CCN(CC(=O)Nc3cccc(C)c3)CC2)cc1`: the Emax entry at D(4) dopamine receptor [2], on D(3) dopamine receptor [1] and on D(4) dopamine receptor [6] was “inactive” throughout. In addition, the results for the inhibition on D(4) dopamine receptor [3] and at D(4) dopamine receptor [4] were 100% and 95.8%, respectively. Moreover, at D(3) dopamine receptor [5], the inhibition entry is “inactive”.

As for `Cc1cccc(NC(=O)CN2CCN(c3cccc4ccccc34)CC2)c1`, the Emax result on D(3) dopamine receptor [1] was “inactive”. For the same compound, at D(3) dopamine receptor [5], the inhibition entry was “inactive”.

For the compound `CCc1cccc(NC(=O)CN2CCN(c3ccc(Cl)cn3)CC2)c1`, the Emax entry at D(4) dopamine receptor [2], at D(3) dopamine receptor [1] and at D(4) dopamine receptor [6] was “inactive” in each case. Moreover, the figures for the inhibition at D(4) dopamine receptor [3] and at D(4) dopamine receptor [4] were 80.4% and 100%, respectively. The inhibition result at D(3) dopamine receptor [5] was “inactive”.

For the compound `Cc1cccc(NC(=O)CN2CCN(c3ccc(Cl)cn3)CC2)c1`, the Emax result at D(4) dopamine receptor [2], at D(3) dopamine receptor [1] and at D(4) dopamine receptor [6] was “inactive” in each case. Also, the inhibition result at D(3) dopamine receptor [5] is “inactive”.

Turning to `Cc1cccc(NC(=O)CCN2CCN(c3ccccn3)CC2)c1`, the Emax at D(4) dopamine receptor [2] worked out at 30%. The inhibition on D(4) dopamine receptor [3] came out at 97.9%; at D(4) dopamine receptor [4], 84.2%. Further, the Emax result on D(4) dopamine receptor [6] is “inactive”.

Take `O=C(CN1CCN(c2ccc(Cl)cn2)CC1)Nc1cncnc1`: the Emax entry on D(4) dopamine receptor [2], on D(3) dopamine receptor [1] and on D(4) dopamine receptor [6] was “inactive” throughout. In addition, the inhibition at D(4) dopamine receptor [3] and at D(4) dopamine receptor [4] was 100% in each case. Moreover, the inhibition result on D(3) dopamine receptor [5] is “inactive”.

On to `CCc1cccc(NC(=O)CN2CCC(c3ccccn3)CC2)c1`, for which the Emax on D(4) dopamine receptor [2] was determined as 25.6%. Further, the Emax result on D(3) dopamine receptor [1] and on D(4) dopamine receptor [6] was “inactive” in each case. Further, the inhibition on D(4) dopamine receptor [3] stood at 91.7%; at D(4) dopamine receptor [4], 70.8%.

Regarding `O=C(CN1CCN(c2ccccn2)CC1)Nc1cncnc1`, the Emax entry on D(4) dopamine receptor [2], on D(3) dopamine receptor [1] and on D(4) dopamine receptor [6] was “inactive” each time. In addition, the inhibition result at D(4) dopamine receptor [3] and on D(3) dopamine receptor [5] was “inactive” each time. For the same compound, the inhibition at D(4) dopamine receptor [4] turned out to be 100%.

On to `O=C(CN1CCN(c2ccc(Cl)cn2)CC1)Nc1cccnc1`, for which the Emax entry at D(4) dopamine receptor [2], on D(3) dopamine receptor [1] and on D(4) dopamine receptor [6] was “inactive” in each case. Also, the inhibition at D(4) dopamine receptor [3] amounted to 93.1%; at D(4) dopamine receptor [4], 100%. For the same compound, the inhibition result on D(3) dopamine receptor [5] was “inactive”.

`O=C(CN1CCN(c2ccccn2)CC1)Nc1cccnc1`: the Emax on D(3) dopamine receptor [1] was determined as 18.6%. In addition, the inhibition entry on D(3) dopamine receptor [5] is “inactive”.

For `Cc1cccc(NC(=O)CCN2CCN(c3ncccn3)CC2)c1`, the Emax at D(4) dopamine receptor [2] was determined as 13.7%. The Emax result at D(3) dopamine receptor [1] and on D(4) dopamine receptor [6] was “inactive” in each case. The figures for the inhibition on D(4) dopamine receptor [3] and at D(4) dopamine receptor [4] were 97.1% and 87%, respectively.

For the compound `Cc1ccc(C2CCN(CC(=O)Nc3cccc(C)c3)CC2)nc1`, the Emax entry on D(4) dopamine receptor [2], at D(3) dopamine receptor [1] and on D(4) dopamine receptor [6] was “inactive” each time. For the same compound, the inhibition on D(4) dopamine receptor [3] amounted to 98.1%; on D(4) dopamine receptor [4] it was 100%. The inhibition result on D(3) dopamine receptor [5] is “inactive”.
